Broadly, the IC50 is the concentration that inhibits the measured activity by half.

For the experiment, the target named is ATX (human His-tagged) (Homo sapiens (Human), UniProt Q13822). The experiment can be described thus: Human ATX enzyme inhibition assay (fluorescence quenching, MR121 substrate). Conditions: read-out: ATX IC50; 30 nM ATX, 1 μM MR121 substrate, 30° C. The protocol: Human ATX Enzyme Inhibition Assay
ATX inhibition was measured by a fluorescence quenching assay using a specifically labeled substrate analogue (MR121 substrate). To obtain this MR121 substrate, BOC and TBS protected 6-amino-hexanoic acid (R)-3-({2-[3-(2-{2-[2-(2-amino-ethoxy)-ethoxy]-ethoxy-}ethoxy)-propionylamino]-ethoxy}-hydroxy-phosphoryloxy)-2-hydroxy-propyl ester (Ferguson et al., Org Lett 2006, 8 (10), 2023) was labeled with MR121 fluorophore (CAS 185308-24-1, 1-(3-carboxypropyl)-11-ethyl-1,2,3,4,8,9,10,11-octahydro-dipyrido[3,2-b:2′,3′-i]phenoxazin-13-ium) on the free amine of the ethanolamine side and then, after deprotection, subsequently with tryptophan on the side of the aminohexanoic acid.
Assay working solutions were made as follows:
Assay buffer (50 mM Tris-HCl, 140 mM NaCl, 5 mM KCl, 1 mM CaCl2, 1 mM MgCl2, 0.01% Triton-X-100, pH 8.0;
ATX solution: ATX (human His-tagged) stock solution (1.08 mg/mL in 20 mM bicine, pH 8.5, 0.15 M NaCl, 10% glycerol, 0.3% CHAPS, 0.02% NaN3), diluted to 1.4-2.5× final concentration in assay buffer;
MR121 substrate solution: MR121 substrate stock solution (800 μM MR121 substrate in DMSO), diluted to 2-5× final concentration in assay buffer.
Test compounds (10 mM stock in DMSO, 8 μL) were obtained in 384 well sample plates (Corning Costar #3655) and diluted with 8 μL DMSO. […]

Turning to `O=C(c1cc(OCC2CCOCC2)nc(C2CC2)c1)N1Cc2ccc(C(=O)N3CCc4[nH]nnc4C3)cc2C1`, the IC50 came out at 8 nM.

Values taken from patent US10882857B2, “Bicyclic compounds as ATX inhibitors” (Hoffmann-La Roche Inc., priority 2017, dated 2021).
